According to patent US6410554B1, “Combination therapy for the treatment of benign prostatic hyperplasia” (Merck & Co., Inc., priority 1998, dated 2002):

Target: T1, human alpha-1a adrenergic receptor (Homo sapiens, UniProt P35348)
T1 sequence (P35348 1-466): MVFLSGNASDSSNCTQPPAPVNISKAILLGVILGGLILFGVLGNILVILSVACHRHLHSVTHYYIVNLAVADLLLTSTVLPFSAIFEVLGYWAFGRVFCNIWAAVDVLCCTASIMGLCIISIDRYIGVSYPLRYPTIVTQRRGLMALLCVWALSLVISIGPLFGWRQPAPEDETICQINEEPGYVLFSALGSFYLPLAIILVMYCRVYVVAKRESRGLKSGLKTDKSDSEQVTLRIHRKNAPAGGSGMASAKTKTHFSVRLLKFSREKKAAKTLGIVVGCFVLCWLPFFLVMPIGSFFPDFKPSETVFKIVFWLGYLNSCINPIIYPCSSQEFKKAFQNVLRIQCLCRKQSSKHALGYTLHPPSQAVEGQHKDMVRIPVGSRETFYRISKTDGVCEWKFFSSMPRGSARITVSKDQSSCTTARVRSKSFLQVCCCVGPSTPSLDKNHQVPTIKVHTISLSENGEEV
Experiment: selectivity for the alpha-1a adrenergic receptor (assays described in WO 96/14846)
Type: binding
Details: Compound A and pharmaceutically acceptable salts thereof
Protocol: Compound A is prepared according to the procedure of Example 30 in WO 96/14846 or according to the processes disclosed in detail herein. The identification of Compound A as an alpha-1a adrenergic receptor antagonist was established according to the assays described in WO 96/14846.
One implication of this selectivity is that these compounds display selectivity for lowering intraurethral pressure without substantially affecting diastolic blood pressure.

## (+)-5-Methoxycarbonyl-6-(3,4-difluorophenyl-4-methoxymethyl-1-{N-[3-(4-(2-pyridyl)piperdin-1-yl)propyl]}-carboxamido-2-oxo-1,2,3,6-tetrahydropyrimidine [Compound A]
  selectivity for the human alpha-1a adrenergic receptor: high selectivity
